The chains behind the UniProt entries cited, without tags or fusion partners.
UniProt P04049, whole entry Y340E/Y341E: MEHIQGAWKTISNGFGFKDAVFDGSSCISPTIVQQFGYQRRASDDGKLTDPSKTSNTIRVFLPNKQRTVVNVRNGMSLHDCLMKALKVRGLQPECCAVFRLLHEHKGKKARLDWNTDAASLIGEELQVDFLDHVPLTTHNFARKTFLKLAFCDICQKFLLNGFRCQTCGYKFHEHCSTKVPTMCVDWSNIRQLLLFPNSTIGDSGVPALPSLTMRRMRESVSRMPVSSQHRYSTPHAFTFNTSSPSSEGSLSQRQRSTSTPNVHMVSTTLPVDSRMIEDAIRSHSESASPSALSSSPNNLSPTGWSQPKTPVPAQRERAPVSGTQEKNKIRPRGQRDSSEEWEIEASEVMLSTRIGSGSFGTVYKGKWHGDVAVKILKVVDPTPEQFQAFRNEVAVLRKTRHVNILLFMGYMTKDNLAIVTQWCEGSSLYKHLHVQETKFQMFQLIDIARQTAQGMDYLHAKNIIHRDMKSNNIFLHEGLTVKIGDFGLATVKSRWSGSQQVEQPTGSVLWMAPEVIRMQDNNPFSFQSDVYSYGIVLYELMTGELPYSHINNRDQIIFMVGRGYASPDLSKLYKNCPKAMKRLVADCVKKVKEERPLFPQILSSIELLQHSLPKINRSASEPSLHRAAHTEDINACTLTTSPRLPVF

The first assay addresses C-Raf FL (full-length C-Raf protein, Y340E and Y341E activating mutations) (Homo sapiens (Human), UniProt P04049, Y340E/Y341E). The format is biochemical. The conditions noted are these: AlphaScreen, 60 min pre-incubation, 1 hour reaction; read-out: c-Raf FL IC-50. In general terms: Alpha assays give light when donor and acceptor beads are brought close together.
For `CCNc1nc(-c2cc(NC(=O)c3ccnc(C4COC4)c3)cnc2C)cc(N2CCOCC2)n1` [Example 729, N-(5-(2-(ethylamino)-6-morpholinopyrimidin-4-yl)-6-methylpyridin-3-yl)-2-(oxetan-3-yl)isonicotinamide], the IC50 was found to be 2.9 nM.
Still for that read-out and setting: in the case of `CCNc1nc(-c2cc(NC(=O)c3ccnc(C(C)(C)C)c3)cnc2C)cc(N2CCOCC2)n1` [Example 724, 2-(tert-butyl)-N-(5-(2-(ethylamino)-6-morpholinopyrimidin-4-yl)-6-methylpyridin-3-yl)isonicotinamide] it was 4.8 nM; in that of `Cc1ncc(C(=O)Nc2cccc(C(C)(C)O)c2)cc1-c1cc(N2CCOCC2)c(=O)n(C)c1` [Example 446, N-(3-(2-hydroxypropan-2-yl)phenyl)-1′,2-dimethyl-5′-morpholino-6′-oxo-1′,6′-dihydro-[3,3′-bipyridine]-5-carboxamide], 29.1 nM; in that of `Cc1ncc(NC(=O)c2ccnc(C(F)F)c2)cc1-c1cc(N2CCOCC2)n2nccc2n1` [Example 803, 2-(difluoromethyl)-N-(6-methyl-5-(7-morpholinopyrazolo[1,5-a]pyrimidin-5-yl)pyridin-3-yl)isonicotinamide], 0.9 nM.
On the same count and under the same terms, in the case of `Cc1ccc(NC(=O)c2ccnc(C(C)(C)C#N)c2)cc1-c1cc(N2CCOCC2)n2nccc2n1` [Example 792, 2(2-cyanopropan-2-yl)-N-(4-methyl-3(7-morpholinopyrazolo[1,5-a]pyrimidin-5-yl)phenyl)isonicotinamide] it was 0.3 nM; in that of `Cc1ccc(NC(=O)c2ccnc(S(C)(=O)=O)c2)cc1-c1cc(N2CCOCC2)nc(N(C)C)n1` [Example 759, N-(3-(2-(dimethylamino)-6-morpholinopyrimidin-4-yl)-4-methylphenyl)-2-(methylsulfonyl)isonicotinamide], 4.7 nM.
On the same count and under the same terms, then `Cc1ccc(NC(=O)c2cccc(-c3nnco3)c2)cc1-c1cc(N2CCOCC2)n(C)c(=O)c1` [Example 493, N-(4-methyl-3-(1-methyl-6-morpholino-2-oxo-1,2-dihydropyridin-4-yl)phenyl)-3-(1,3,4-oxadiazol-2-yl)benzamide], with 0.8 nM; and `CCOc1nnc(-c2cc(NC(=O)c3ccnc(C(F)(F)CC)c3)ccc2C)cc1N1CCOCC1` [Example 560, 2-(1,1-difluoropropyl)-N-(3-(6-ethoxy-5-morpholinopyridazin-3-yl)-4-methylphenyl)isonicotinamide], with 0.3 nM.
Take `Cc1ncc(NC(=O)c2ccnc(C(C)(C)C#N)c2)cc1-c1cc(N2CCOCC2)nc(NCCO)n1` [Example 736, 2-(2-cyanopropan-2-yl)-N-(5-(2-((2-hydroxyethyl)amino)-6-morpholinopyrimidin-4-yl)-6-methylpyridin-3-yl)isonicotinamide]: the IC50 is 7.3 nM.
Consider `CCn1cc(C(=O)Nc2cnc(C)c(-c3cc(N4CCOCC4)n(C)c(=O)c3)c2)cc(C(F)(F)F)c1=O` [Example 502, N-(1′,2-dimethyl-6′-morpholino-2′-oxo-1′,2′-dihydro-[3,4′-bipyridin]-5-yl)-1-ethyl-6-oxo-5-(trifluoromethyl)-1,6-dihydropyridine-3-carboxamide], for which the IC50 is 5.4 nM.
On the same count and under the same terms, then `Cc1ccc(C(=O)Nc2ccccc2)cc1-c1cc(N2CCOCC2)n(C)c(=O)c1` [Example 518, 4-methyl-3-(1-methyl-6-morpholino-2-oxo-1,2-dihydropyridin-4-yl)-N-phenylbenzamide], with 37.1 nM; and `Cc1ccc(NC(=O)c2ccnc(C(C)(C)F)c2)cc1-c1cc(N2CCOC(C)(C)C2)c(=O)n(C)n1` [Example 665, N-(3-(5-(2,2-dimethylmorpholino)-1-methyl-6-oxo-1,6-dihydropyridazin-3-yl)-4-methylphenyl)-2-(2-fluoropropan-2-yl)isonicotinamide], with 2.1 nM.
With `Cc1ccc(NC(=O)c2ccnc(C(C)(C)C#N)c2)cc1-c1cc(N2CCOCC2)nc(NC(C)(C)CO)n1` [Example 751, 2-(2-cyanopropan-2-yl)-N-(3-(2-((1-hydroxy-2-methylpropan-2-yl)amino)-6-morpholinopyrimidin-4-yl)-4-methylphenyl)isonicotinamide], the IC50 is 0.4 nM.
On the same count and under the same terms, in the case of `Cc1ccc(NC(=O)c2cccc(C(F)F)c2)cc1-c1cc(N2CCOCC2)n(C)c(=O)c1` [Example 484, 3-(difluoromethyl)-N-(4-methyl-3-(1-methyl-6-morpholino-2-oxo-1,2-dihydropyridin-4-yl)phenyl)benzamide] it was 0.1 nM.
Regarding `Cc1ccc(NC(=O)c2ccnc(C(C)(C)C#N)c2)cc1-c1cc(N2CCOCC2)nc(N2C(=O)OC[C@@H]2C)n1` [Example 782, (S)-2-(2-cyanopropan-2-yl)-N-(4-methyl-3-(2-(4-methyl-2-oxooxazolidin-3-yl)-6-morpholinopyrimidin-4-yl)phenyl)isonicotinamide], the IC50 amounted to 6.5 nM.
Still for that read-out and setting: in the case of `CCNc1nc(-c2cc(NC(=O)c3ccnc(C4(C#N)CC4)c3)cnc2C)cc(N2CCOCC2)n1` [Example 728, 2-(1-cyanocyclopropyl)-N-(5-(2-(ethylamino)-6-morpholinopyrimidin-4-yl)-6-methylpyridin-3-yl)isonicotinamide] it was 0.8 nM.

Still in this assay, the particulars now being: AlphaScreen, 60 min pre-incubation, reaction 1 hour at room temperature; read-out: c-Raf FL IC-50.
On to `Cc1ncc(NC(=O)c2ccnc(C(C)(C)F)c2)cc1-c1cc(N2CCOCC2)nc(N2CC(C)(O)C2)c1` [Example 1106, 2-(2-fluoropropan-2-yl)-N-(2′-(3-hydroxy-3-methylazetidin-1-yl)-2-methyl-6′-morpholino-[3,4′-bipyridin]-5-yl)isonicotinamide], for which the IC50 is 1.82 nM.
On the same count and under the same terms, in the case of `Cc1ncc(NC(=O)c2ccnc(C(F)(F)F)c2)cc1-c1cc(N2CCOCC2)nc(N2CC(O)C2)c1` [Example 1088, N-(2′-(3-hydroxyazetidin-1-yl)-2-methyl-6′-morpholino-[3,4′-bipyridin]-5-yl)-2-(trifluoromethyl)isonicotinamide] it was 1.12 nM; in that of `CCN1CCN(c2cc(C(=O)Nc3cnc(C)c(-c4cc(NCCO)nc(N5CCOCC5)c4)c3)cc(C(F)(F)F)c2)CC1` [Example 1045, 3-(4-ethylpiperazin-1-yl)-N-(2′-((2-hydroxyethyl)amino)-2-methyl-6′-morpholino-[3,4′-bipyridin]-5-yl)-5-(trifluoromethyl)benzamide], 8.18 nM; in that of `Cc1ncc(NC(=O)c2ccnc(C(F)F)c2)cc1-c1cc(N2CCOCC2)nc(N2CC(C)(O)C2)c1` [Example 1103, 2-(difluoromethyl)-N-(2′-(3-hydroxy-3-methylazetidin-1-yl)-2-methyl-6′-morpholino-[3,4′-bipyridin]-5-yl)isonicotinamide], 1.44 nM.
Still for that read-out and setting: then `Cc1ncc(NC(=O)c2cccc(C(F)(F)F)c2)cc1-c1nc2c(c(N3CCOCC3)n1)CS(=O)(=O)C2` [Example 886, N-(6-methyl-5-(4-morpholino-6,6-dioxido-5,7-dihydrothieno[3,4-d]pyrimidin-2-yl)pyridin-3-yl)-3-(trifluoromethyl)benzamide], with 0.6 nM; and `Cc1ncc(NC(=O)c2ccnc(S(C)(=O)=O)c2)cc1-c1cc(N2CCOCC2)nc(N2CCOCC2)c1` [Example 1124, N-(2-methyl-2′,6′-dimorpholino-[3,4′-bipyridin]-5-yl)-2-(methylsulfonyl)isonicotinamide], with 1.58 nM; and `Cc1cc(=O)c(C(=O)Nc2cccc(C(F)(F)F)c2)cn1-c1ccnc(N2CCOCC2)c1` [Example 1175, 6-methyl-2′-morpholino-4-oxo-N-(3-(trifluoromethyl)phenyl)-4H-[1,4′-bipyridine]-3-carboxamide], with 20.4 nM.

The assay is the same for the next values; noted with them: Table 2; AlphaScreen, 1 hour reaction; read-out: c-Raf FL IC-50.
`Cc1ncc(NC(=O)c2cccc(C(F)(F)F)c2)cc1-c1cc(N2CCOCC2)c(=O)n(CCC#N)c1` [Example 333, N-(1′-(2-cyanoethyl)-2-methyl-5′-morpholino-6′-oxo-1′,6′-dihydro-[3,3′-bipyridin]-5-yl)-3-(trifluoromethyl)benzamide]: the IC50 was 1.5 nM.
Regarding `Cc1ncc(NC(=O)c2ccnc(C(C)C)c2)cc1-c1cnc(N(C)C)c(N2CCOCC2)c1` [Example 308, N-(6′-(dimethylamino)-2-methyl-5′-morpholino-[3,3′-bipyridin]-5-yl)-2-isopropylisonicotinamide], the IC50 was found to be 0.2 nM.
On the same count and under the same terms, in the case of `COCCOc1ncc(-c2cc(NC(=O)c3cccc(C(F)(F)F)c3)cnc2C)cc1N1CCOCC1` [Example 312, N-(6′-(2-methoxyethoxy)-2-methyl-5′-morpholino-[3,3′-bipyridin]-5-yl)-3-(trifluoromethyl)benzamide] it was 1.1 nM; in that of `Cc1ccc(C(=O)Nc2cccc(C(F)(F)F)c2)cc1-c1ccnc(N2CCOCC2)c1` [Example 63, 4-Methyl-3-(2-morpholinopyridin-4-yl)-N-(3-(trifluoromethyl)phenyl)benzamide], 0.5 nM; in that of `COc1ncc(-c2cc(NC(=O)c3ccnc(C(C)(C)F)c3)cnc2Cl)cc1N1CCOCC1` [Example 262, N-(2-chloro-6′-methoxy-5′-morpholino-[3,3′-bipyridin]-5-yl)-2-(2-fluoropropan-2-yl)isonicotinamide], 1 nM.
With `Cc1ncc(NC(=O)c2ccnc(C(C)(C)C#N)c2)cc1-c1cnc(OCCO)c(N2CCOCC2)c1` [Example 300, 2-(2-cyanopropan-2-yl)-N-(6′-(2-hydroxyethoxy)-2-methyl-5′-morpholino-[3,3′-bipyridin]-5-yl)isonicotinamide], the IC50 stood at 4.7 nM.
Still for that read-out and setting: in the case of `Cc1ccc(NC(=O)c2cccc(C(F)(F)F)c2)cc1-c1cc(N2CC3CC2CO3)nc(N2CCOCC2)n1` (stereo not shown) [Example 51, N-(3-(6-(2-oxa-5-azabicyclo[2.2.1]heptan-5-yl)-2-morpholinopyrimidin-4-yl)-4-methylphenyl)-3-(trifluoromethyl)benzamide] it was 0.7 nM.

Still in this assay, the particulars now being: read-out: c-Raf FL IC-50.
On to `Cc1ccc(NC(=O)c2cccc(C(F)(F)F)c2)cc1-c1cn2ccnc2c(N2CCOC[C@H]2C)n1` [Example 825, (R)—N-(4-methyl-3-(8-(3-methylmorpholino)imidazo[1,2-a]pyrazin-6-yl)phenyl)-3-(trifluoromethyl)benzamide], for which the IC50 amounted to 0.2 nM.

The record behind these values is patent US9694016B2 (Novartis AG, priority 2013, dated 2017).
